The text below walks through data of paper PMC6972567 (Journal of Clinical Pharmacology, 2019).

Broadly, the CL/F is clearance divided by bioavailability, as obtained after extravascular dosing. As usually defined, the Cmax is the peak of the concentration-time curve.

A short description of this series: Plasma pharmacokinetics of the CYP probe substrates and metabolites. Conditions: for Cmax: plasma. In kind it is in vivo, human.
[1] abbreviates: Period 2, CYP probes + upadacitinib 30 mg once daily, n = 20, mean ± SD.

Regarding `CC(=O)C[C@@H](c1ccccc1)c1c(O)c2ccccc2oc1=O` [S‐warfarin], the CL/F runs as follows: (Period 1, CYP probes alone, n = 20, mean ± SD) 0.462 ± 0.122 L/h; under setting [1], 0.422 ± 0.120 L/h. In addition, the Cmax is, setting by setting: (Period 1, CYP probes alone, single oral dose, healthy subjects n = 20, mean ± SD) 630 ± 84.4 ng/mL; under setting [1], 675 ± 121 ng/mL.
